Reference: patent publication US20260384451A1, “6-ARYL IMIDAZO[2,1-B]THI/OpXAZOLE-2-CARBOXILIC ACID DERIVATIVE AND PHARMACEUTICAL COMPOSITION FOR TREATING ALZHEIMER'S DISEASE CONTAINING SAME AS ACTIVE INGREDIENT” (published 2026)

Protein sequences, listed by entry. Tags and fused reporters are not part of them.
UniProt P53779, whole entry: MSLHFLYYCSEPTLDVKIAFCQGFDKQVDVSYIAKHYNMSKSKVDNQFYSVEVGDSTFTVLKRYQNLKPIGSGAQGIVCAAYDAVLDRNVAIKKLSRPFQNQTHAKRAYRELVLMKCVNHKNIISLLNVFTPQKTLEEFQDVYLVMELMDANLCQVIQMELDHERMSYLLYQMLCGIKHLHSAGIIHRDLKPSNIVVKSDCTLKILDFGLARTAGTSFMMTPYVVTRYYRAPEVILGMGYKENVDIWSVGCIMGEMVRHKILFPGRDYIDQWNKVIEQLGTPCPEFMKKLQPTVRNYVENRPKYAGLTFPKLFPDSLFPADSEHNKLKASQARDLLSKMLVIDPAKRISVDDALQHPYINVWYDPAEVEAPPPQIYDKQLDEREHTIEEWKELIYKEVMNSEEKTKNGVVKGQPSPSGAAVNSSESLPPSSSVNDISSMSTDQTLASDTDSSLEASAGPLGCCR

Target: JNK3 (Homo sapiens, UniProt P53779)
Experiment: In vitro JNK3 inhibitory activity assay
Settings: read-out: JNK3 inhibitory activity (IC50); Table 1, imidazo[2,1-b]thiazole derivatives, class symbols

Row | SMILES | IC50 [nM]
1 | CNC(=O)c1cn2c(-c3ccnc(N[C@H]4CCCN(C(=O)C5CC5)C4)n3)c(-c3ccc4c(c3)OCCO4)nc2s1 | 30 to 1000
2 | CCOC(=O)c1cn2c(-c3ccnc(N[C@H]4CCCN(C(=O)N(C)C)C4)n3)c(-c3ccc4c(c3)OCCO4)nc2s1 | 30 to 1000
3 | CCOC(=O)c1cn2c(-c3ccnc(N[C@@H]4CCCN(C(=O)C5CC5)C4)n3)c(-c3ccc4c(c3)OCCO4)nc2s1 | 1 to 30
4 | CCOC(=O)c1cn2c(-c3ccnc(N[C@H]4CCCN(C(=O)C5CC5)C4)n3)c(-c3ccc(Cl)c(Cl)c3)nc2s1 | 30 to 1000
5 | CN(C)C(=O)N1CCC[C@@H](Nc2nccc(-c3c(-c4ccc(F)c(C(F)(F)F)c4)nc4sc(C(N)=O)cn34)n2)C1 | 1 to 30
6 | NC(=O)c1cn2c(-c3ccnc(N[C@H]4CCCN(C(=O)C5CC5)C4)n3)c(-c3ccc(F)c(C(F)(F)F)c3)nc2s1 | 30 to 1000
7 | CCOC(=O)c1cn2c(-c3ccnc(N[C@H]4CCCN(C(=O)C5CC5)C4)n3)c(-c3ccc4ccccc4c3)nc2s1 | 30 to 1000
8 | NC(=O)c1cn2c(-c3ccnc(N[C@@H]4CCCN(C(=O)C5CC5)C4)n3)c(-c3ccc(F)c(C(F)(F)F)c3)nc2s1 | 1 to 30
9 | CCOC(=O)c1cn2c(-c3ccnc(N[C@H]4CCCN(C(=O)N(C)C)C4)n3)c(-c3ccc4ccccc4c3)nc2s1 | 30 to 1000
10 | CN(C)C(=O)N1CCC[C@H](Nc2nccc(-c3c(-c4ccc(Cl)c(Cl)c4)nc4sc(C(N)=O)cn34)n2)C1 | 30 to 1000
11 | CNC(=O)c1cn2c(-c3ccnc(N[C@H]4CCCN(C(=O)C5CC5)C4)n3)c(-c3ccc(F)c(C(F)(F)F)c3)nc2s1 | 30 to 1000

Further lines, results first:

Row | IC50 [nM] | SMILES
12 | 1 to 30 | CCOC(=O)c1cn2c(-c3ccnc(N[C@@H]4CCCN(C(=O)C5CC5)C4)n3)c(-c3ccc(Cl)c(Cl)c3)nc2s1
13 | 1 to 30 | CNC(=O)c1cn2c(-c3ccnc(N[C@@H]4CCCN(C(=O)N(C)C)C4)n3)c(-c3ccc(F)c(C(F)(F)F)c3)nc2s1
14 | 30 to 1000 | CCOC(=O)c1cn2c(-c3ccnc(N[C@H]4CCCN(C(=O)C5CC5)C4)n3)c(-c3ccc(F)c(C(F)(F)F)c3)nc2s1
15 | 30 to 1000 | NC(=O)c1cn2c(-c3ccnc(N[C@H]4CCCN(C(=O)C5CC5)C4)n3)c(-c3ccc4c(c3)OCCO4)nc2s1
16 | 30 to 1000 | CNC(=O)c1cn2c(-c3ccnc(N[C@H]4CCCN(C(=O)N(C)C)C4)n3)c(-c3ccc4ccccc4c3)nc2s1
17 | < 1 | CNC(=O)c1cn2c(-c3ccnc(N[C@@H]4CCCN(C(=O)N(C)C)C4)n3)c(-c3ccc(Cl)c(Cl)c3)nc2s1

Same assay, conditions: read-out: JNK3 inhibitory activity (IC50); Table 2, imidazo[2,1-b]thiazole derivatives, class symbols

Row | SMILES | IC50 [nM]
18 | CCOC(=O)c1cn2c(-c3ccnc(NC4CCCCC4)n3)c(-c3ccc(Cl)c(Cl)c3)nc2s1 | 30 to 1000
19 | CCOC(=O)c1cn2c(-c3ccnc(NCC4CC4)n3)c(-c3ccc4ccccc4c3)nc2s1 | 30 to 1000
20 | NC(=O)c1cn2c(-c3ccnc(NC4CCOCC4)n3)c(-c3ccc(Cl)c(Cl)c3)nc2s1 | 1 to 30
21 | NC(=O)c1cn2c(-c3ccnc(NC4CCCCC4)n3)c(-c3ccc4ccccc4c3)nc2s1 | 30 to 1000
22 | CNC(=O)c1cn2c(-c3ccnc(NCC4CC4)n3)c(-c3ccc4ccccc4c3)nc2s1 | 1000 to 10000

Next, values leading:

Row | IC50 [nM] | SMILES
23 | 1 to 30 | CCOC(=O)c1cn2c(-c3ccnc(NC4CCCCC4)n3)c(-c3ccc(F)c(Cl)c3)nc2s1
24 | 30 to 1000 | CCOC(=O)c1cn2c(-c3ccnc(NC4CCCCC4)n3)c(-c3ccc4c(c3)OCCO4)nc2s1
25 | 1 to 30 | NC(=O)c1cn2c(-c3ccnc(NC4CCCCC4)n3)c(-c3ccc4c(c3)OCCO4)nc2s1
26 | 30 to 1000 | NC(=O)c1cn2c(-c3ccnc(NC4CCOCC4)n3)c(-c3ccc4ccccc4c3)nc2s1
27 | 1 to 30 | CNC(=O)c1cn2c(-c3ccnc(NC4CCCCC4)n3)c(-c3ccc4ccccc4c3)nc2s1
28 | 1 to 30 | NC(=O)c1cn2c(-c3ccnc(NC4CCCCC4)n3)c(-c3ccc(F)c(Cl)c3)nc2s1

Same assay, conditions: read-out: JNK3 inhibitory activity (IC50); Table 3, imidazo[2,1-b]oxazole derivatives, class symbols

Row | SMILES | IC50 [nM]
29 | CCOC(=O)c1cn2c(-c3ccnc(N[C@@H]4CCCN(C(=O)C5CC5)C4)n3)c(-c3ccc(Cl)c(Cl)c3)nc2o1 | < 1
30 | CNC(=O)c1cn2c(-c3ccnc(N[C@@H]4CCCN(C(=O)C5CC5)C4)n3)c(-c3ccc4ccccc4c3)nc2o1 | < 1
31 | NC(=O)c1cn2c(-c3ccnc(N[C@@H]4CCCN(C(=O)C5CC5)C4)n3)c(-c3ccc4ccccc4c3)nc2o1 | < 1
32 | NC(=O)c1cn2c(-c3ccnc(N[C@H]4CCN(C(=O)C5CC5)C4)n3)c(-c3ccc4ccccc4c3)nc2o1 | 1000 to 10000
33 | CCOC(=O)c1cn2c(-c3ccnc(N[C@H]4CCCN(C(=O)C5CC5)C4)n3)c(-c3ccc(Cl)c(Cl)c3)nc2o1 | > 10000
34 | CNC(=O)c1cn2c(-c3ccnc(N[C@H]4CCN(C(=O)C5CC5)C4)n3)c(-c3ccc4ccccc4c3)nc2o1 | 1000 to 10000
35 | CCOC(=O)c1cn2c(-c3ccnc(N[C@@H]4CCN(C(=O)C5CC5)C4)n3)c(-c3ccc4ccccc4c3)nc2o1 | > 10000
36 | NC(=O)c1cn2c(-c3ccnc(N[C@@H]4CCN(C(=O)C5CC5)C4)n3)c(-c3ccc4ccccc4c3)nc2o1 | 1000 to 10000

Now from value to compound:

Row | IC50 [nM] | SMILES
37 | 30 to 1000 | CCOC(=O)c1cn2c(-c3ccnc(N[C@H]4CCCN(C(=O)N(C)C)C4)n3)c(-c3ccc4ccccc4c3)nc2o1
38 | 1 to 30 | CCOC(=O)c1cn2c(-c3ccnc(N[C@H]4CCCN(C(=O)N(C)C)C4)n3)c(-c3ccc(Cl)c(Cl)c3)nc2o1
39 | > 10000 | CNC(=O)c1cn2c(-c3ccnc(N[C@@H]4CCN(C(=O)C5CC5)C4)n3)c(-c3ccc4ccccc4c3)nc2o1
40 | 1 to 30 | CCOC(=O)c1cn2c(-c3ccnc(N[C@@H]4CCCN(C(=O)C5CC5)C4)n3)c(-c3ccc(F)c(Cl)c3)nc2o1
41 | < 1 | CNC(=O)c1cn2c(-c3ccnc(N[C@@H]4CCCN(C(=O)N(C)C)C4)n3)c(-c3ccc4ccccc4c3)nc2o1

Same assay, conditions: read-out: JNK3 inhibitory activity (IC50); Table 4, imidazo[2,1-b]oxazole derivatives, class symbols

Row | IC50 [nM] | SMILES
42 | < 1 | NC(=O)c1cn2c(-c3ccnc(NC4CCN(C(=O)C5CC5)CC4)n3)c(-c3ccc4ccccc4c3)nc2o1

Same assay, conditions: read-out: JNK3 inhibitory activity (IC50); Table 5, imidazo[2,1-b]oxazole derivatives, class symbols

Row | IC50 [nM] | SMILES
43 | 1 to 30 | NC(=O)c1cn2c(-c3ccnc(NC4CCCCC4)n3)c(-c3ccc4c(c3)OCCO4)nc2o1
44 | < 1 | CNC(=O)c1cn2c(-c3ccnc(NC4CCOCC4)n3)c(-c3ccc(Cl)c(Cl)c3)nc2o1
45 | < 1 | CNC(=O)c1cn2c(-c3ccnc(NC4CCCCC4)n3)c(-c3ccc(Cl)c(Cl)c3)nc2o1
46 | < 1 | CCOC(=O)c1cn2c(-c3ccnc(NC4CCCCC4)n3)c(-c3ccc4ccccc4c3)nc2o1

Same assay, conditions: read-out: JNK3 inhibitory activity (IC50); Table 6, imidazo[2,1-b]thiazole-based covalent inhibitors, class symbols

Row | IC50 [nM] | SMILES
47 | 1 to 30 | C#CCNC(=O)c1cn2c(-c3ccnc(NC4CCCCC4)n3)c(-c3ccc(Cl)c(Cl)c3)nc2s1
48 | < 1 | C#CCNC(=O)c1cn2c(-c3ccnc(NC4CCOCC4)n3)c(-c3ccc(F)c(Cl)c3)nc2s1
49 | 1 to 30 | C#CCNC(=O)c1cn2c(-c3ccnc(NC4CCCCC4)n3)c(-c3ccc4ccccc4c3)nc2s1
50 | < 1 | C=CC(=O)Nc1cn2c(-c3ccnc(NC4CCCCC4)n3)c(-c3ccc(Cl)c(Cl)c3)nc2s1
51 | 1 to 30 | C=CC(=O)Nc1cn2c(-c3ccnc(NC4CCOCC4)n3)c(-c3ccc(F)c(Cl)c3)nc2s1
52 | < 1 | C=CC(=O)Nc1cn2c(-c3ccnc(NC4CCOCC4)n3)c(-c3ccc4ccccc4c3)nc2s1
53 | < 1 | C=CC(=O)Nc1cn2c(-c3ccnc(NC4CCCCC4)n3)c(-c3ccc4ccccc4c3)nc2s1

Same assay, conditions: read-out: JNK3 inhibitory activity (IC50); Table 7, imidazo[2,1-b]oxazole-based covalent inhibitors, class symbols

Row | SMILES | IC50 [nM]
54 | C=CC(=O)Nc1cn2c(-c3ccnc(NC4CCCCC4)n3)c(-c3ccc(F)c(Cl)c3)nc2o1 | < 1
55 | C=CC(=O)Nc1cn2c(-c3ccnc(NC4CCCCC4)n3)c(-c3ccc(Cl)c(Cl)c3)nc2o1 | < 1
56 | CN(C)/C=C/C(=O)c1cn2c(-c3ccnc(NC4CCCCC4)n3)c(-c3ccc(Cl)c(Cl)c3)nc2o1 | 30 to 1000

Further lines, results first:

Row | IC50 [nM] | SMILES
57 | 1 to 30 | C=CC(=O)c1cn2c(-c3ccnc(NC4CCOCC4)n3)c(-c3ccc4ccccc4c3)nc2o1
58 | < 1 | C=CC(=O)Nc1cn2c(-c3ccnc(NC4CCOCC4)n3)c(-c3ccc4ccccc4c3)nc2o1
